Experimental data as given in patent publication US20170143748A1, “ANTI-TUMOR PHARMACEUTICAL APPLICATION OF PENTACYCLIC TRITERPENE SAPONIN COMPOUNDS OF SZECHUAN MELANDIUM ROOT” (priority 2014, published 2017).

System: BGC823 human gastric adenocarcinoma
Assay: Anti-BGC823 human gastric adenocarcinoma in BALB/c (nu/nu) nude mice
Format: in vivo
Details: 1 W; mg/kg BW: total saponins 1.5, Compound 1, combination 1 & 19, 5-FU 20; Sc; in g (unit assumed)
Protocol: Human resources gastric adenocarcinoma cell line BGC823 was cultured in the same condition as the experiment 4.
The body weight and the tumor volume were measured and recorded weekly. The tumor volume was calculated according to the formula below.
Tumors were departed and weighed. Tumor Index and inhibition rate were calculated as below: […]
Wacao total saponins group, Compound (1), (2) and 5-FU were respectively dissolved into sterile water, sterilized with filtration. Compound (1)+5-FU, Compound (2)+5-FU were prepared as 1:19 respectively, sterilized with filtration.

COC(=O)C1CC(O[C@H]2CC[C@]3(C)[C@H]4C=CC5[C@@H]6CC(C)(C)CC[C@]6(C(=O)OC6OC(C)C(OC(=O)/C=C/c7ccc(C)cc7)C(OC(C)=O)C6OC6CC(C)C(O)C(O)C6O)[C@H](O)C[C@@]5(C)[C@]4(C)CC[C@H]3[C@]2(C)C=O)C(OC2OC(CO)C(O)C(O)C2O)C(OC2OCC(O)C(O)C2O)C1O (stereo partly shown) [Compound (2), sinocrassuloside VII]
body weight of BGC823-bearing nude mice: 21.90 ± 0.88
